Test [1] concerns the target Kappa-type opioid receptor (Homo sapiens, UniProt P41145). Kind of test: Radioligand Dose-Displacement Binding Assay: Membranes from recombinant HEK-293 cells expressing the human kippa opioid receptor (cloned in house) were prepared by lysing cells in ice cold hypotonic buffer (2.5 mM MgCl2, 50 mM HEPES, pH 7.4) (10 mL/10 cm dish) followed by homogenization with a tissue grinder/Teflon pestle. Membranes were collected by centrifugation at 30,000xg for 15 min at 4 C. a. To be noted: sf9.

Test [2] deals with Mu-type opioid receptor (Homo sapiens, UniProt P35372). Kind of test: Radioligand Dose-Displacement Binding Assay: Radioligand dose-displacement binding assays for -opioid receptors used 0.3 nM [3H]-diprenorphine (Perkin Elmer, Shelton, Conn.), with […] membrane protein/well in a final volume of 500 ul binding buffer (10 mM MgCl2, 1 mM EDTA, 5% DMSO, 50 mM HEPES, pH 7.4). Reactions were carried out in the absence or presence of increasing concentrations of unlabele.

For test [3], the target named is Delta-type opioid receptor (Homo sapiens, UniProt P41143). Kind of test: Radioligand Dose-Displacement Binding Assay: δ-opioid Receptor Binding Assay Procedures were conducted as follows. Radioligand dose-displacement assays used 0.3 nM [3H]-Naltrindole (Perkin Elmer, Shelton, Conn.; 33.0 Ci/mmole) with 5 μg membrane protein (Perkin Elmer, Shelton, Conn.) in a final volume of 500 μl binding buffer (5 mM MgCl2, 5% DMSO, 50 mM Trizma base, pH 7.4). Non-specific binding w.

What is called Ki is a dissociation constant, usually derived from enzyme kinetics or from competition with a known ligand. Regarding `CO[C@]12CC[C@@]3(C[C@@H]1COCc1ccccc1C)[C@H]1Cc4ccc(O)c5c4[C@@]3(CC[N+]1(C)CC1CC1)[C@H]2O5` (stereo partly specified), the Ki in test [1] was found to be 0.47 nM.
With `COc1ccc2c3c1O[C@H]1[C@@]4(OC)CC[C@@]5(C[C@@H]4COCc4ccc(C(N)=O)cc4)[C@@H](C2)[N+](C)(CC2CC2)CC[C@]315` (stereo partly specified), in test [1], the Ki turned out to be 1030 nM.
For `COc1ccc2c3c1O[C@H]1[C@@]4(OC)CC[C@@]5(C[C@@H]4COCc4ccco4)[C@@H](C2)[N+](C)(CC2CC2)CC[C@]315` (stereo partly specified), the Ki was 10.6 nM in test [1], 571 nM in test [2] and 4790 nM in test [3].
In the case of `COc1ccc2c3c1O[C@H]1[C@@]4(OC)CC[C@@]5(C[C@@H]4COCc4ccc6ccccc6c4)[C@@H](C2)[N+](C)(CC2CC2)CC[C@]315` (stereo partly specified), the Ki was determined as 165 nM in test [1] and 182 nM in test [2].
Regarding `COc1ccc2c3c1O[C@H]1[C@@]4(OC)CC[C@@]5(C[C@@H]4COCc4ccc(C)cc4)[C@@H](C2)[N+](C)(CC2CC2)CC[C@]315` (stereo partly specified), the Ki was found to be 117 nM in test [1], 242 nM in test [2] and 10100 nM in test [3].
Turning to `COc1ccc2c3c1O[C@H]1[C@@]4(OC)CC[C@@]5(C[C@@H]4COCc4ccc(Cl)c(Cl)c4)[C@@H](C2)[N+](C)(CC2CC2)CC[C@]315` (stereo partly specified), the results for the Ki in test [2] and in test [3] were 67.2 nM and 4410 nM, respectively.
`COc1ccc2c3c1O[C@H]1[C@@]4(OC)CC[C@@]5(C[C@@H]4COc4ccccc4)[C@@H](C2)[N+](C)(CC2CC2)CC[C@]315` (stereo partly specified): the Ki came to 348 nM in test [1] and 1490 nM in test [2].
As to `COc1ccc2c3c1O[C@H]1[C@@]4(OC)CC[C@@]5(C[C@@H]4COCc4cc6c(cc4Cl)OCO6)[C@@H](C2)[N+](C)(CC2CC2)CC[C@]315` (stereo partly specified), the results for the Ki in test [1], in test [2] and in test [3] were 66.7 nM, 163 nM and 18400 nM, respectively.
As for `COc1ccc2c3c1O[C@H]1[C@@]4(OC)CC[C@@]5(C[C@@H]4COCc4cc6ccccc6o4)[C@@H](C2)[N+](C)(CC2CC2)CC[C@]315` (stereo partly specified), in test [1], the inhibition constant (Ki) was 17.3 nM.
Turning to `COc1ccc2c3c1O[C@H]1[C@@]4(OC)CC[C@@]5(C[C@@H]4COCc4ccc(C(C)(F)F)cc4)[C@@H](C2)[N+](C)(CC2CC2)CC[C@]315` (stereo partly specified), the Ki in test [1] was 112 nM; in test [2], 262 nM.
Take `CO[C@]12CC[C@@]3(C[C@@H]1COCc1ccoc1)[C@H]1Cc4ccc(O)c5c4[C@@]3(CC[N+]1(C)CC1CC1)[C@H]2O5` (stereo partly specified): the values for the Ki in test [2] and in test [3] were 47.1 nM and 193 nM, respectively.
For `COc1ccc(COC[C@H]2C[C@@]34CC[C@]2(OC)[C@@H]2Oc5c(OC)ccc6c5[C@@]23CC[N+](C)(CC2CC2)[C@@H]4C6)cc1` (stereo partly specified), the values for the Ki in test [1] and in test [2] were 57 nM and 544 nM, respectively.
In the case of `COc1ccc2c3c1O[C@H]1[C@@]4(OC)CC[C@@]5(C[C@@H]4COCc4ccoc4)[C@@H](C2)[N+](C)(CC2CC2)CC[C@]315` (stereo partly specified), the values for the Ki in test [1] and in test [2] were 35 nM and 5810 nM, respectively.

Source of the values: ChEMBL document CHEMBL3638402, “Quarternized buprenorphine analogs” (2015).
